{"source": "patent US10869871B2", "about": "“Compositions and methods of modulating short-chain dehydrogenase activity” (CASE WESTERN RESERVE UNIVERSITY, priority 2013, dated 2020)", "key": {"15-PGDH protein": {"system": "15-PGDH protein", "assay": "Western blot of 15-PGDH protein levels in treated cell lines", "assay_type": "cell-based", "settings": "V400-M3-2-72 cells"}, "15-PGDH mRNA": {"system": "15-PGDH mRNA", "assay": "15-PGDH mRNA levels in colon cancer cell lines by real-time PCR", "assay_type": "cell-based", "settings": "treated colon cancer cell lines"}}, "data": [{"smiles": "COc1ccc(-c2cc(C(F)(F)F)n3nc(C(=O)N4CCCCC4)cc3n2)cc1", "values": [{"measurement": "protein levels of catalytically dead mutant 15-PGDH (mu-PGDH)", "setting": "15-PGDH protein", "value": "increases protein levels of a catalytically dead mutant 15-PGDH"}, {"measurement": "15-PGDH mRNA levels", "setting": "15-PGDH mRNA", "value": "do not in general alter 15-PGDH mRNA levels"}]}]}
